This note sets out measurements from article PMC8433439, “Bivalent ligands promote endosomal trafficking of the dopamine D3 receptor-neurotensin receptor 1 heterodimer” (Communications Biology, 2021).

Chains of the proteins cited; added tags and fusions are not shown.
UniProt P30989, whole entry: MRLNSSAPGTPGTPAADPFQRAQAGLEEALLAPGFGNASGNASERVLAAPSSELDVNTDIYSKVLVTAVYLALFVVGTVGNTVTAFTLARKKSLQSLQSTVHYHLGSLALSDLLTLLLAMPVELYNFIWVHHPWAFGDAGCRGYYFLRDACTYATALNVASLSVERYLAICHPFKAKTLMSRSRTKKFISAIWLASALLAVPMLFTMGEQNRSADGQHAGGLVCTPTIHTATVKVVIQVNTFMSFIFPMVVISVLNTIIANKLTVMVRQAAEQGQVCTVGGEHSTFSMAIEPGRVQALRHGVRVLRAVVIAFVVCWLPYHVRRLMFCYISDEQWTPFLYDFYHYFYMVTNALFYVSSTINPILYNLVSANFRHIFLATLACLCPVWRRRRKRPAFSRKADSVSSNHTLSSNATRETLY

Assay [1] deals with NTSR1-ProLink (NTSR1 fused in frame with the PK1 sequence) (human) (UniProt P30989). The experiment in a line: radioligand binding; saturation binding experiments on transfected β-arrestin HEK293 cells (DiscoverX) used for the PathHunter assay; radioligand not named there.
Assay [2] has as its target wild-type human neurotensin receptor 1 (human) (UniProt P30989). The description is as above.
In assay [3] the target is NTSR1-ProLink (NTSR1 fused in frame with the PK1 sequence) (human) (UniProt P30989).
The target in assay [4] is wild-type human neurotensin receptor 1 (human) (UniProt P30989).

A word on the Kd: it is a measure of binding affinity in units of concentration. Lower therefore signals tighter binding.

As for NT(8-13), peptide NTSR1 agonist, the Kd is 1.9 nM in assay [1] and 1.4 nM in assay [2]. The same substance showed a β-arrestin2 recruitment to NTSR1-ProLink (DiscoverX enzyme fragment complementation), EC50 of NT(8-13) in assay [3] of 0.58 nM. Also, in assay [4], the β-arrestin2 recruitment detected at D3R-ProLink in cells coexpressing wild-type NTSR1 (DiscoverX enzyme fragment complementation), EC50 of NT(8-13) was 1.5 nM.
